Where “and” joins values, the source holds several entries; their conditions need not be identical. Identical values can stand only once. The list shows a part of the results, in another mix than the full data. Inconclusive results are not listed. Calls of active or inactive are those of the source. Calls follow the shape of the dose curve; as a rule, active = well fitted inhibition curve with a large enough effect; inconclusive = small, poorly fitted or top-dose-only effect, or effect the other way; inactive = no such curve, though single readings can be large or run the other way.
% is scaled to controls: 0 for no effect and ±100 for the full control effect.

Chains of the proteins cited; added tags and fusions are not shown. Lines headed by an entry give the natural chain unless they say otherwise; changes in a name come on top.
UniProt Q6W5P4: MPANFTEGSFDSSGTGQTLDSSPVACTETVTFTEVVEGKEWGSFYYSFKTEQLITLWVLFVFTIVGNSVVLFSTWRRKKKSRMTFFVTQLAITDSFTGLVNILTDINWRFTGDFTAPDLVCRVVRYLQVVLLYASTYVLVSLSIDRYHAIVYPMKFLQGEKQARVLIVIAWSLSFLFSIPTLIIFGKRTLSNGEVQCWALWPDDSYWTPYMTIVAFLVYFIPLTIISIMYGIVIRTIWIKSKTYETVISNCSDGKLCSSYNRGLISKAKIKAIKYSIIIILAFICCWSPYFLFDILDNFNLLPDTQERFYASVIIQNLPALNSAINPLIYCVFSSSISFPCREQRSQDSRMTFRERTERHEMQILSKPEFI

The test deals with Neuropeptide S receptor (Homo sapiens) (UniProt Q6W5P4). The test is described as follows: qHTS Assay for Antagonists of the Neuropeptide S Receptor: cAMP Signal Transduction. Also: nearly all actives have a fitted effect of over 50% in size. The conditions noted are these: CHO-NPSR cells, cAMP TR-FRET, antagonist mode; at 38.3 µM (top of the series) unless noted.
With `O=[N+]([O-])c1ncn(CCn2cnc([N+](=O)[O-])n2)n1`, the activity change, negative = inhibition is inactive: 8.34%. For `CC(=O)NC(SC(=S)N(C)C)C(Cl)(Cl)Cl` (stereo not given), the activity change, negative = inhibition is inactive: -45.8%. Next, `O=[As](O)(c1ccccc1)c1ccc(O)cc1`: inactive: -21.1%.

Regarding `Nc1ccc([As](=O)(O)c2ccc([N+](=O)[O-])cc2)cc1`, the activity change, negative = inhibition was inactive: -11.3%. Next, `C(Cc1nn[nH]n1)Cc1nn[nH]n1`: inactive: 17.1%; `O=C(OC1CN2CCC1CC2)c1cccc(Cl)c1` (stereo not given): inactive: -5.97% [at 46.1 µM]; `O=P(Nc1ccccn1)(c1ccc(Br)cc1)c1ccc(Br)cc1`: inactive: -32.9%. In the case of `O=P(Nc1nc2ccccc2s1)(c1ccccc1)c1ccccc1`, the activity change, negative = inhibition is inactive: 14.3%. Regarding `C[C@H]1OP(=O)(Oc2ccccc2)[C@H](O)[C@H](O)[C@H]1N=[N+]=[N-]` (stereo not given in full), the activity change, negative = inhibition was inactive: 14.7%. With `CC(C)C(=O)NC(Sc1ccccc1)C(Cl)(Cl)Cl` (stereo not given), the activity change, negative = inhibition is inactive: -11.9%.

As to `O=P(Nc1nccs1)(c1ccccc1)c1ccccc1`, the activity change, negative = inhibition was inactive: -12.3% [at 46.1 µM].

With `c1nnnn1CCn1cnnn1`, the activity change, negative = inhibition was inactive: -5.1% [at 46.1 µM]. As for `C[C@@H]1C=CCP(=O)(Oc2ccccc2)O1` (stereo not given in full), the figure is inactive: -0.788%; as for `C[C@H]1OP(=O)(Oc2ccccc2)C[C@@H]2O[C@@H]21` (stereo not given in full), inactive: 21.6%.

For `CC(=O)Nc1ccc([As](=O)(O)O)c(O)c1`, the activity change, negative = inhibition was inactive: -10.8%. As for `CC(=O)Nc1ccc(Oc2c([N+](=O)[O-])cc([N+](=O)[O-])cc2[N+](=O)[O-])cc1`, the figure is inactive: 1.84%; as for `O=P1(Nc2nc3ccc(Cl)cc3s2)COc2ccccc2O1` (stereo not given), inactive: 6.82% [at 46.1 µM]. As for `CCOc1ccc(C2=NCC(CBr)S2)cc1` (stereo not given), the figure is inactive: -11.5%; as for `CC(C)(C)C(=O)NC(Sc1ccccc1)C(Cl)(Cl)Cl` (stereo not given), inactive: -56.8%; as for `COC(=O)c1cc2c(s1)N=C(c1ccccc1)N(C)P2(=O)N1CCOCC1` (stereo not given), inactive: -4.47% [at 46.1 µM].

Consider `Cc1ccc(OP(=O)(Nc2ccccn2)Oc2ccc(C)cc2)cc1`, for which the activity change, negative = inhibition was inactive: -35.2%. With `CC(=O)NC(SC(=S)N(CC(C)C)CC(C)C)C(Cl)(Cl)Cl` (stereo not given), the activity change, negative = inhibition is inactive: -21.2%. As for `CN(C(=O)Cc1ccc(Cl)c(Cl)c1)[C@@H]1CCCC[C@@H]1N1CCCC1`, the figure is inactive: 1.8% [at 46.1 µM]. Consider `CCC(=O)N1C2C3N(C(=O)CC)C1C1N(C(=O)CC)C(C(N1C(=O)CC)N3C(=O)CC)N2C(=O)CC`, for which the activity change, negative = inhibition is inactive: -2.08% [at 46.1 µM]. As for `Cc1ccccc1OP(=O)(Nc1ccccn1)Oc1ccccc1C`, the figure is inactive: -3.82%. Next, `CN(C)C(=O)Oc1noc2ccccc12`: inactive: 8.94%. `CCNC(=S)/N=C(\N)N[N+](=O)[O-]`: the activity change, negative = inhibition was inactive: 4.57%. Next, `O=C(NC1CCS(=O)(=O)C1)NP(=S)(Oc1ccccc1)Oc1ccccc1` (stereo not given): inactive: -2.64%; `c1ccc(-c2nn[nH]n2)c(-c2nn[nH]n2)c1`: inactive: -25.9%; `CCOC(=O)NC(Sc1ccccc1)C(Cl)(Cl)Cl` (stereo not given): inactive: -22.3% [at 46.1 µM]. As for `Cc1ccc(NP(=O)(Oc2cccc(C)c2)Oc2cccc(C)c2)nc1`, the figure is inactive: 9.28%; as for `CCN(N=Nc1nonc1N)c1nonc1N`, inactive: 11.7%; as for `Nc1cccc2ccc([As](=O)(O)O)cc12`, inactive: 1.33%. In the case of `O=C(O)c1ccccc1[As](=O)(O)O`, the activity change, negative = inhibition was inactive: -2.43%.

As for `CC(=O)Nc1ccc([As](=O)(O)O)cc1`, the activity change, negative = inhibition was inactive: -7.64%. As for `O=P(Nc1nc2ccc(Cl)cc2s1)(c1ccccc1)c1ccccc1`, the figure is inactive: 51.9%. Next, `CCOP(=O)(Nc1ccccc1)OCC`: inactive: -5.33% [at 46.1 µM]; `Cc1cc(SC(NC(=O)c2ccc(F)cc2)C(Cl)(Cl)Cl)ncn1` (stereo not given): inactive: 23.9%; `Cc1ccc(NP(=O)(Oc2ccccc2F)Oc2ccccc2F)nc1`: inactive: -5.45%. As for `CN(C(=O)Cc1ccc(Cl)c(Cl)c1)[C@H]1CCCC[C@@H]1N1CCCC1`, the activity change, negative = inhibition is inactive: -11.6% [at 46.1 µM] and inactive: -15.2% [at 46.1 µM]. Next, `CC(C)CC(=O)NC(Sc1ccc(Cl)cc1)C(Cl)(Cl)Cl` (stereo not given): inactive: -20.4% [at 46.1 µM]; `Nc1cc(N)c2nonc2c1[N+](=O)[O-]`: inactive: 9.22%; `Oc1ccccc1CNc1ccccn1`: inactive: -1.43% [at 46.1 µM]. Take `O=C(NC(Sc1ccncn1)C(Cl)(Cl)Cl)c1ccccc1` (stereo not given): the activity change, negative = inhibition is inactive: 9.47%.

Take `NC(=O)c1cc([N+](=O)[O-])cc([N+](=O)[O-])c1N`: the activity change, negative = inhibition was inactive: 9.45%. As for `Cc1ccc(N/C(=N/P(=O)(N2CCOCC2)N2CCOCC2)N2CCOCC2)cc1`, the figure is inactive: 7.95%; as for `COc1ccccc1OP(=O)(Nc1ccc(C)cn1)Oc1ccccc1OC`, inactive: -20.1%; as for `Cc1ccc(OP(=O)(Nc2nccs2)Oc2ccc(C)cc2)cc1`, inactive: 9.14%. As for `Clc1ccc(Cl)c(NC2=NCC(CBr)S2)c1` (stereo not given), the activity change, negative = inhibition was inactive: -13.1%. As for `CN1CCCC(OC(=O)C(c2ccccc2)c2ccccc2)C1` (stereo not given), the figure is inactive: -1.62% [at 46.1 µM]; as for `Nc1ccc([As](=O)(O)c2ccc(N)cc2)cc1`, inactive: -9.82%; as for `CCN(/C(=N/P(=O)(N1CCOCC1)N1CCOCC1)N1CCOCC1)c1ccc(OC)cc1`, inactive: 6.42%. Next, `CC(C)=N/N=C(\N)N[N+](=O)[O-]`: inactive: 9.75%; `CN(C)C(=O)OCCc1n(C)cc[n+]1C`: inactive: 25.9%. In the case of `COc1ccc(C2=NCC(CBr)S2)cc1` (stereo not given), the activity change, negative = inhibition is inactive: -5.95%. Next, `O=[N+]([O-])c1cccc2n[nH]nc12`: inactive: -8.03% [at 46.1 µM]; `CC(=O)N1C2C3N(C(C)=O)C1C1N(C(C)=O)C(C(N1C(C)=O)N3C(C)=O)N2C(C)=O`: inactive: -3.29% [at 46.1 µM]. As for `Cc1ccc(NP(=O)(Oc2ccccc2)Oc2ccccc2)nc1`, the figure is inactive: -19.1%; as for `O=[N+]([O-])c1cc([N+](=O)[O-])c(CCNc2ccccc2)c([N+](=O)[O-])c1`, inactive: 11.7%. Next, `CC(C)(C)C(=O)NC(Sc1ccncn1)C(Cl)(Cl)Cl` (stereo not given): inactive: 19%. For the compound `O=[N+]([O-])c1ncn(CCn2ncnc2[N+](=O)[O-])n1`, the activity change, negative = inhibition was inactive: 21.4%. As for `O=[N+]([O-])c1cccc(NC2=NCC(CBr)S2)c1` (stereo not given), the figure is inactive: 7.61%; as for `O=C(O)CNc1ccc([As](=O)(O)O)cc1`, inactive: -12.3%.

With `O=C(Nc1cc([As](=O)(O)O)ccc1O)c1ccccc1`, the activity change, negative = inhibition is inactive: -24%. Next, `CCOC(=O)Nc1cccc([As](=O)(O)O)c1`: inactive: -19.8%; `O=[N+]([O-])c1ccc(Nc2ccc(Oc3ccc([N+](=O)[O-])cc3[N+](=O)[O-])cc2)c([N+](=O)[O-])c1`: inactive: 36.5%. `O=P(Nc1ccccn1)(c1cccc2ccccc12)c1cccc2ccccc12`: the activity change, negative = inhibition is inactive: -25%. For the compound `Cc1cc(SC(NC=O)C(Cl)(Cl)Cl)ncn1` (stereo not given), the activity change, negative = inhibition is inactive: 5.51%. Next, `CCOC(=O)Nc1ccc([As](=O)(O)O)c(O)c1`: inactive: -9.09%; `Cc1cc(SC(NC(=O)c2ccccc2)C(Cl)(Cl)Cl)nc(C(C)C)n1` (stereo not given): inactive: -0.533%.

`CCOC(=O)c1ccc(NC(=O)C(C)(CCl)SC)cc1` (stereo not given): the activity change, negative = inhibition is inactive: -2.7%.

With `COP1(=S)c2c(C)nn(CCC#N)c2N=C(c2ccc(F)cc2)N1C` (stereo not given), the activity change, negative = inhibition is inactive: -13.3% [at 46.1 µM].

In the case of `O=C(COc1ccccc1)OC1CN2CCC1CC2` (stereo not given), the activity change, negative = inhibition was inactive: 12.4% [at 46.1 µM]. Next, `COc1ccc(N/C(=N/P(=O)(N2CCOCC2)N2CCOCC2)N2CCOCC2)cc1`: inactive: 19.5%; `O=C(OC1CN2CCC1CC2)C12CC3CC(CC(C3)C1)C2` (stereo not given): inactive: 4.53% [at 46.1 µM]. Regarding `Cc1cc(=O)[nH]c(N[N+](=O)[O-])n1`, the activity change, negative = inhibition was inactive: 10.3%.

`Cc1c2c(nc3ccccc13)SC(C(Cl)Cl)C2` (stereo not given): the activity change, negative = inhibition was inactive: 8.84%. As for `COc1ccc2nc(NP(=O)(c3ccccc3)c3ccccc3)sc2c1`, the activity change, negative = inhibition was inactive: -28.6%. With `COc1cc(I)ccc1[As](=O)(O)O`, the activity change, negative = inhibition was inactive: -10.6%. As for `CC(C)c1ccc(OP(=O)(Nc2ccccn2)Oc2ccccc2F)cc1` (stereo not given), the figure is inactive: -21.4%; as for `ClCCSc1nnc(-c2cccnc2)o1`, inactive: 3.43% [at 46.1 µM].

As to `CCN(CC)C(=S)SC(NC=O)C(Cl)(Cl)Cl` (stereo not given), the activity change, negative = inhibition was inactive: -13.3% [at 46.1 µM]. Regarding `CC(C)NC(=O)NP(=O)(Oc1ccccc1)Oc1ccccc1`, the activity change, negative = inhibition was inactive: 5.71%. With `O=[N+]([O-])c1cc([N+](=O)[O-])c(-c2ccn[nH]2)s1`, the activity change, negative = inhibition is inactive: 11.6%.

For the compound `C[As](=O)(O)c1cccc(C(=O)O)c1`, the activity change, negative = inhibition is inactive: -17.9%.

For `O=[As](O)(c1ccc(O)cc1)c1ccccc1O`, the activity change, negative = inhibition was inactive: -24.5%. Next, `Cc1ccc2nc3c(c(C)c2c1)CC(C(Cl)Cl)S3` (stereo not given): inactive: -16.6% [at 46.1 µM]; `Cc1ccc(OP(=O)(Nc2ccc([N+](=O)[O-])cn2)Oc2ccc(C)cc2)cc1`: inactive: -1.79%; `NC(=O)Nc1ccc([As](=O)(O)O)cc1`: inactive: 22.2%. Next, `O=[N+]([O-])c1ccc2c(c1)nnn2O`: inactive: 7.28% [at 46.1 µM]; `CCOP1(=S)c2c(C)nn(CCC#N)c2N=C(c2ccc(F)cc2)N1C` (stereo not given): inactive: -23.5% [at 46.1 µM]. Next, `CN(C(=O)Cc1ccccc1)[C@@H]1CC[C@]2(CCCO2)C[C@H]1N1CCCC1`: inactive: 12.8%; `CS(=O)(=O)c1cc([N+](=O)[O-])c2no[n+]([O-])c2c1`: inactive: 29.5%; `CCOP1(=S)c2c(C)nn(CCC#N)c2N=C(c2ccccc2F)N1C` (stereo not given): inactive: -10.3% [at 46.1 µM]. `O=P(Nc1nccs1)(c1ccccc1)c1nc2ccccc2s1` (stereo not given): the activity change, negative = inhibition is inactive: -16.8% [at 46.1 µM].
